We go through 37 compounds from PubChem BioAssay (NCI).

Only a part is listed here, and it is no random draw. Where a structure was tested more than once in an assay, its records may differ in their call. Active and inactive are the calls of the source. Cut-off read from the data, not from the text of the source: active = growth inhibition above about 70%; inactive = the rest.

The nature of the first assay: NCI Yeast Anticancer Drug Screen. Data for the mec2-1 strain (AID 157). The conditions noted are these: S. cerevisiae mec2-1 strain, at 50.0 µM, active compounds read high.
Consider `O=C(O)c1ccccc1[As](=O)(O)O`, for which the growth inhibition is inactive: -2.65%.

As to `CC(=O)NC1C(O)OC(CS[As](C)C)C(O)C1O` (centres undefined), the growth inhibition is inactive: 3.85%.

For the compound `CCN(CCCl)Cc1ccc2ccccc2c1`, the growth inhibition is inactive: -1.5%.

Turning to `n1[nH]nc2c1c1n[nH]nc1c1n[nH]nc21`, the growth inhibition is inactive: -35.4%.

Consider `[N-]=[N+]=NC/C(N)=N/O`, for which the growth inhibition was inactive: -7.6%.

On to `C[N+]1(CCCC[N+]2(C)CCCCCC2)CCCCCC1`, for which the growth inhibition was inactive: -10.3%.

Consider `CCOP(=O)(OCC)OP1OCC(C)(C)CO1`, for which the growth inhibition is inactive: -29.9%.

As for `O=P1(N(CCCl)CCCl)NCCC(C(F)(F)F)O1` (centres undefined), the growth inhibition is inactive: 7.95%.

Take `[N-]=[N+]=NCC(O)CN=[N+]=[N-]` (centres undefined): the growth inhibition is inactive: -14.8%.

As for `COP(OC)c1ccc(C)cc1`, the growth inhibition was inactive: -14.3%.

In the case of `NCCc1ccc(N(CCCl)CCCl)cc1`, the growth inhibition was inactive: 35.8%.

For `O=C(O)CCc1ccc(Oc2cc([N+](=O)[O-])c([N+](=O)[O-])c([N+](=O)[O-])c2)cc1`, the growth inhibition was inactive: 6.6%.

Turning to `CN(C)[P+](On1nnc2ccccc21)(N(C)C)N(C)C`, the growth inhibition was inactive: -1.9%.

For the compound `O=C(N=Nc1ccc([N+](=O)[O-])cc1[N+](=O)[O-])NNc1ccc([N+](=O)[O-])cc1[N+](=O)[O-]`, the growth inhibition was inactive: 36.1%.

Take `N=P(c1ccccc1)(c1ccccc1)c1ccccc1`: the growth inhibition was inactive: 2.45%.

Regarding `ClP(Cc1ccccc1)Cc1ccccc1`, the growth inhibition was inactive: -8.3%.

Turning to `Cn1c(COC(=O)N(CCCl)CCCl)cnc1S(C)=O` (centres undefined), the growth inhibition was inactive: -19.1%.

As to `CCOC(=O)NC(c1ccccc1[N+](=O)[O-])P(=O)(O)Nc1ncn[nH]1` (centres undefined), the growth inhibition was inactive: -21.5%.

For the compound `O=P(OCC(O)CO)(Oc1ccccc1)N(CCCl)CCCl` (centres undefined), the growth inhibition is inactive: 8.9%.

As to `CCOP1(=O)N=C(NC2=NC(C(F)(F)F)(C(F)(F)F)N=C(C(F)(F)F)O2)N(C)C1(C)C` (centres undefined), the growth inhibition was inactive: 12.4%.

Consider `[N-]=[N+]=Nc1ccc([As](=O)(O)O)cc1`, for which the growth inhibition was inactive: -15.2%.

Take `C[Si](C)(C)CCCNCCCl`: the growth inhibition is inactive: 22.3%.

`CC(COC(=O)c1cc([N+](=O)[O-])cc([N+](=O)[O-])c1)OC(=O)c1cc([N+](=O)[O-])cc([N+](=O)[O-])c1` (centres undefined): the growth inhibition was inactive: -7.95%.

Take `O=P(NO)(OCc1ccccc1)N(CCCl)CCCl` (centres undefined): the growth inhibition is inactive: 11.6%.

As to `CC1CC[P+](c2ccccc2)(c2ccccc2)Cc2ccccc21` (centres undefined), the growth inhibition is inactive: -2.95%.

As to `BrP(c1ccccc1)c1ccccc1`, the growth inhibition is inactive: 6.6%.

With `CC(C)(C)C1CC(C(F)(F)F)(C(F)(F)F)OP(=O)(Cl)O1` (centres undefined), the growth inhibition is inactive: 9.85%.

For the compound `Cc1cccc(N[P@]2(Cl)=NP(Cl)(Cl)=N[P@@](Cl)(Nc3cccc(C)c3)=NP(Cl)(Cl)=N2)c1`, the growth inhibition was inactive: -3.1%.

As for `C/C(=N/Nc1ccc([N+](=O)[O-])cc1[N+](=O)[O-])c1ccc([N+](=O)[O-])cc1`, the growth inhibition is inactive: 14.8%.

Turning to `Nc1ccc(P(=O)(Nc2ccccn2)Nc2ccccn2)cc1`, the growth inhibition is inactive: 6.3%.

As for `CC(/C=C/C(C)=N\Nc1ccc([N+](=O)[O-])cc1[N+](=O)[O-])=N/Nc1ccc([N+](=O)[O-])cc1[N+](=O)[O-]`, the growth inhibition is inactive: 3.45%.

As for `CN1C(=O)N(C)P(=O)(c2ccccc2)P1c1ccccc1` (centres undefined), the growth inhibition is inactive: -3.35%.

For the compound `N/C(=N\N=C\c1ccc([N+](=O)[O-])o1)N[N+](=O)[O-]`, the growth inhibition was inactive: 16.1%.

Consider `CCCCCCCCCCCCCCCC(=O)OCC(COP(=O)(Oc1ccccc1)N(CCCl)CCCl)OC(=O)CCCCCCCCCCCCCCC` (centres undefined), for which the growth inhibition was inactive: -1.95%.

Turning to `[N-]=[N+]=NC(N)=O`, the growth inhibition is inactive: -11.7%.

`CCCCOc1ccc(N(CCCl)CCCl)cc1`: the growth inhibition is inactive: -0.2%.

On to `ClC1=C(Cl)C2(Cl)C3C(SC4C3C3(Cl)C(Cl)=C(Cl)C4(Cl)C3(Cl)Cl)C1(Cl)C2(Cl)Cl` (centres undefined), for which the growth inhibition is inactive: 9.9%.

The next assay can be described thus: NCI Yeast Anticancer Drug Screen. Data for the sgs1 mgt1 strain (AID 161).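 Note: 0% = growth of cultures given vehicle only.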 The conditions noted are these: S. cerevisiae sgs1 mgt1 strain, at 50.0 µM, active compounds read high.
For the compound `O=C(O)c1ccccc1[As](=O)(O)O`, the growth inhibition is inactive: -6.25%.

As for `CC(=O)NC1C(O)OC(CS[As](C)C)C(O)C1O` (centres undefined), the growth inhibition was inactive: -7.55%.

In the case of `CCN(CCCl)Cc1ccc2ccccc2c1`, the growth inhibition is inactive: 36%.

In the case of `n1[nH]nc2c1c1n[nH]nc1c1n[nH]nc21`, the growth inhibition is inactive: -29.1%.

`[N-]=[N+]=NC/C(N)=N/O`: the growth inhibition is inactive: 7.15%.

As to `C[N+]1(CCCC[N+]2(C)CCCCCC2)CCCCCC1`, the growth inhibition was inactive: -24.7%.

As for `CCOP(=O)(OCC)OP1OCC(C)(C)CO1`, the growth inhibition is inactive: -27.9%.

As for `O=P1(N(CCCl)CCCl)NCCC(C(F)(F)F)O1` (centres undefined), the growth inhibition was inactive: 15.8%.

`[N-]=[N+]=NCC(O)CN=[N+]=[N-]` (centres undefined): the growth inhibition is inactive: -9.45%.

`COP(OC)c1ccc(C)cc1`: the growth inhibition is inactive: -1.65%.

As to `NCCc1ccc(N(CCCl)CCCl)cc1`, the growth inhibition is inactive: -4.1%.

For `O=C(O)CCc1ccc(Oc2cc([N+](=O)[O-])c([N+](=O)[O-])c([N+](=O)[O-])c2)cc1`, the growth inhibition was inactive: 52.8%.

For `CN(C)[P+](On1nnc2ccccc21)(N(C)C)N(C)C`, the growth inhibition was inactive: 14%.

In the case of `O=C(N=Nc1ccc([N+](=O)[O-])cc1[N+](=O)[O-])NNc1ccc([N+](=O)[O-])cc1[N+](=O)[O-]`, the growth inhibition is inactive: 38%.

For the compound `N=P(c1ccccc1)(c1ccccc1)c1ccccc1`, the growth inhibition was inactive: -5.3%.

As for `ClP(Cc1ccccc1)Cc1ccccc1`, the growth inhibition is inactive: -12.3%.

`Cn1c(COC(=O)N(CCCl)CCCl)cnc1S(C)=O` (centres undefined): the growth inhibition was inactive: -23.1%.

Turning to `CCOC(=O)NC(c1ccccc1[N+](=O)[O-])P(=O)(O)Nc1ncn[nH]1` (centres undefined), the growth inhibition was inactive: -28.5%.

On to `O=P(OCC(O)CO)(Oc1ccccc1)N(CCCl)CCCl` (centres undefined), for which the growth inhibition was inactive: -4.05%.

Turning to `CCOP1(=O)N=C(NC2=NC(C(F)(F)F)(C(F)(F)F)N=C(C(F)(F)F)O2)N(C)C1(C)C` (centres undefined), the growth inhibition was inactive: -13.8%.

As to `[N-]=[N+]=Nc1ccc([As](=O)(O)O)cc1`, the growth inhibition was inactive: -27.3%.

In the case of `C[Si](C)(C)CCCNCCCl`, the growth inhibition was inactive: 24.9%.

On to `CC(COC(=O)c1cc([N+](=O)[O-])cc([N+](=O)[O-])c1)OC(=O)c1cc([N+](=O)[O-])cc([N+](=O)[O-])c1` (centres undefined), for which the growth inhibition was inactive: -23.2%.

As for `O=P(NO)(OCc1ccccc1)N(CCCl)CCCl` (centres undefined), the growth inhibition is inactive: 3.3%.

Turning to `CC1CC[P+](c2ccccc2)(c2ccccc2)Cc2ccccc21` (centres undefined), the growth inhibition is inactive: 38%.

Regarding `BrP(c1ccccc1)c1ccccc1`, the growth inhibition is inactive: 10.2%.

As for `CC(C)(C)C1CC(C(F)(F)F)(C(F)(F)F)OP(=O)(Cl)O1` (centres undefined), the growth inhibition was inactive: 7.2%.

On to `Cc1cccc(N[P@]2(Cl)=NP(Cl)(Cl)=N[P@@](Cl)(Nc3cccc(C)c3)=NP(Cl)(Cl)=N2)c1`, for which the growth inhibition is inactive: -0.55%.

On to `C/C(=N/Nc1ccc([N+](=O)[O-])cc1[N+](=O)[O-])c1ccc([N+](=O)[O-])cc1`, for which the growth inhibition is inactive: 13.9%.

Regarding `Nc1ccc(P(=O)(Nc2ccccn2)Nc2ccccn2)cc1`, the growth inhibition is inactive: 3.45%.

Take `CC(/C=C/C(C)=N\Nc1ccc([N+](=O)[O-])cc1[N+](=O)[O-])=N/Nc1ccc([N+](=O)[O-])cc1[N+](=O)[O-]`: the growth inhibition was inactive: -10.3%.

For the compound `CN1C(=O)N(C)P(=O)(c2ccccc2)P1c1ccccc1` (centres undefined), the growth inhibition was inactive: 12.8%.

Consider `N/C(=N\N=C\c1ccc([N+](=O)[O-])o1)N[N+](=O)[O-]`, for which the growth inhibition is inactive: 15.5%.

`CCCCCCCCCCCCCCCC(=O)OCC(COP(=O)(Oc1ccccc1)N(CCCl)CCCl)OC(=O)CCCCCCCCCCCCCCC` (centres undefined): the growth inhibition was inactive: -6.85%.

As to `[N-]=[N+]=NC(N)=O`, the growth inhibition was inactive: -2.35%.

Take `CCCCOc1ccc(N(CCCl)CCCl)cc1`: the growth inhibition is inactive: 6.55%.

As for `ClC1=C(Cl)C2(Cl)C3C(SC4C3C3(Cl)C(Cl)=C(Cl)C4(Cl)C3(Cl)Cl)C1(Cl)C2(Cl)Cl` (centres undefined), the growth inhibition was inactive: -14.8%.
